Shown are actives, neighbours in structure and some others; about 2.3% of the full set was active somewhere.
A549 tox-1: A549 cytotoxicity, counter-screen for Nrf2 inhibitors; hit rate 0.16% among 390,000; Potency, µM (series often up to 46 µM), most hits filed as inhibitors; A549 ARE-Fluc cells, CellTiter-Fluor viability, 18-24 h
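A549 ARE_Fluc cells in 5% FBS OPTI-MEM were exposed to compounds in concentration-response for 18-24 h at 37 deg C. Viability was read by CellTiter-Fluor fluorescence (Ex 405/Em 525) after 30 min, before the luciferase read.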
Mito fusion yeast: inhibitors of mitochondrial division or activators of mitochondrial fusion; S. cerevisiae fusion-defective mutant growth rescue, CellTiterGlo 48 h; hit rate 0.23% among 320,000; Potency, µM (series often up to 46.1 µM), hits mostly activators; further: nearly all actives have a fitted effect of over 45% in size
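Compounds are tested for their ability to restore growth of mitochondrial fusion-defective yeast strains at non-permissive 37C in YPEG medium over 48 hours. Viability is quantified by luciferase luminescence.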
miR-21 reporter: raises the signal of a miR-21 reporter | Potency, µM (doses to about 38.3 µM) | HeLa miR-21 FLuc reporter, luciferase, 48 h | AID 2288 | 340,000 tested, under 10 active; active = well fitted rising curve with a large enough effect; inconclusive = small, poorly fitted or top-dose-only effect; inactive = no such curve, though single readings can be large or run the other way;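 also: miR-21 action dims this reporter so a rising signal means less miR-21 action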
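HeLa miR-21-FLuc reporter line, endogenous miR-21; 2000 cells/well in DMEM/10% FBS; compound titration up to ~40uM final, 48 h, 37 degree Celsius; luciferase detection reagent, 15 min lysis, CCD luminescence.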
Nrf2 block: Nrf2 pathway inhibition; A549 ARE-Fluc reporter, luciferase luminescence, 18-24 h; Potency, µM (doses to about 46 µM), actives largely listed as inhibitors; hit rate 2.1% among 360,000; AID 504444; further: nearly all actives have a fitted effect of over 60% in size
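Nrf2 function is reported as luminescence of an ARE-controlled luciferase in A549 cells. Compounds were tested at several concentrations, and a CellTiter-Fluor read on the same wells flagged cytotoxicity.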
Nrf2 ARE act: activates Nrf2 signaling. AREc32 ARE-luciferase reporter (MCF7-derived line), luminescence, 24 h. Potency, µM (top dose mostly 46.1 µM), actives largely listed as activators. hit rate 0.31% among 410,000. AID 624171; further: nearly all actives have a fitted effect of over 65% in size
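Steps: seed AREc32_Fluc cells (1000/well, 5% FBS OPTI-MEM); incubate overnight at 37 deg C; add 23 nL compound; incubate 24 hr; add Steady-Glo; hold 30 min RT; read luminescence.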
FLuc counter 3: blocks purified firefly luciferase in Nrf2 counterscreen; hit rate 4% among 1,400; purified firefly luciferase, luminescence inhibition; shares compounds with Nrf2 block; Potency, µM (top dose mostly 57.5 µM), actives largely listed as inhibitors; further: nearly all actives have a fitted effect of over 65% in size
A549 tox-2: A549 cytotoxicity, Nrf2 inhibitor counterscreen | shares compounds with Nrf2 block | A549 ARE-Fluc cells, cytotoxicity counterscreen | Potency, µM (top dose mostly 46.1 µM), hits mostly inhibitors | hit rate 2% among 1,400 | AID 720523;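 further: cells exposed to compounds for 18 to 24 hours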
Nrf2 ARE inh: Nrf2 inhibition confirmed, A549 ARE-luciferase. shares compounds with Nrf2 block. A549 ARE-firefly luciferase reporter, luminescence. Potency, µM (top dose mostly 46.1 µM), usual class: inhibitors. hit rate 74% among 1,400; further: nearly all actives have a fitted effect of over 65% in size
Hits are given with their value; [ ] = dose if it differs, or a comment. Unless noted, the call rests on the fitted dose curve; in most records, active means well fitted curve in the direction sought with a large enough effect; inconclusive means small, poorly fitted or top-dose-only effect, or another doubt; inactive means no such curve, though single readings can be large; an effect the other way counts as inactive or inconclusive.

CC1CCN(c2c(NCc3ccc(C(=O)N4CCN(C5CCCCC5)CC4)cc3)c(=O)c2=O)CC1 was read as A549 tox-1 inactive, Mito fusion yeast inactive, miR-21 reporter inactive, Nrf2 block inactive and Nrf2 ARE act inactive.
CC1CCN(c2c(NCc3ccc(C(=O)N4c5ccccc5CC4C)cc3)c(=O)c2=O)CC1 (stereo unspecified) was read as A549 tox-1 inactive, Mito fusion yeast inactive, miR-21 reporter inactive, Nrf2 block 9.2µM, Nrf2 ARE act inactive, FLuc counter 3 inactive, A549 tox-2 inactive and Nrf2 ARE inh 2.1µM.
Screening COC(=O)c1[nH]c2ccc(C)cc2c1NC(=O)CN1CCC(C)CC1 returned A549 tox-1 inactive, Mito fusion yeast inactive, miR-21 reporter inactive, Nrf2 block inconclusive and Nrf2 ARE act inactive.
`COC(=O)c1[nH]c2ccc(C)cc2c1NC(=O)CN1CCN(c2ccc(F)cc2)CC1` gave A549 tox-1 inconclusive, Mito fusion yeast inactive, miR-21 reporter inactive, Nrf2 block 8.9µM, Nrf2 ARE act inactive, FLuc counter 3 inactive, A549 tox-2 inactive and Nrf2 ARE inh 8.2µM.
For COc1ccc(/C=C(/C#N)C(=O)Nc2ccccc2C)cc1C(=O)O the results were A549 tox-1 inactive, Mito fusion yeast inconclusive, miR-21 reporter inactive, Nrf2 block inactive and Nrf2 ARE act inactive.
For CCOc1cc(/C=C(\C#N)C(=O)Nc2ccccc2C(=O)O)ccc1OC(=O)c1ccc(C)cc1 the results were A549 tox-1 inactive, Mito fusion yeast inactive, miR-21 reporter inactive, Nrf2 block 2.1µM, Nrf2 ARE act inactive, FLuc counter 3 inconclusive, A549 tox-2 inactive and Nrf2 ARE inh 4.6µM.
Screening O=C(Cn1c(=O)oc2cc(S(=O)(=O)NCc3ccccc3)ccc21)NCc1ccc(F)cc1 returned A549 tox-1 inactive, miR-21 reporter inactive, Nrf2 block inactive and Nrf2 ARE act inactive.
`COc1ccc(C(=O)NC(C)c2nc3ccccc3n2C)cc1OC` (stereo unspecified) gave A549 tox-1 inactive, Mito fusion yeast inactive, miR-21 reporter inactive, Nrf2 block inactive and Nrf2 ARE act inactive.
For COc1ccc(C(O)c2nc3ccccc3n2C)cc1OC (stereo unspecified) the results were A549 tox-1 inactive[1.84 µM], Mito fusion yeast inactive, miR-21 reporter inactive, Nrf2 block 3.7µM, Nrf2 ARE act inactive, FLuc counter 3 inactive, A549 tox-2 inactive and Nrf2 ARE inh inconclusive.
`Cc1ccc(Cn2c(CN3CCC(C(=O)NCCc4ccccc4)CC3)cc3ccccc32)cc1` gave A549 tox-1 inactive, miR-21 reporter inactive and Nrf2 ARE act inactive.
For CC1CC2C(C(O)CC3(C)C2CCC3(O)C(=O)CO)C2(C)C=CC(=O)C=C12 (stereo unspecified) the results were A549 tox-1 inactive, Nrf2 block 0.046µM, Nrf2 ARE act inactive, FLuc counter 3 inactive, A549 tox-2 inactive and Nrf2 ARE inh 0.041µM.
`CC(=O)OCC(=O)[C@@]1(O)CC[C@H]2[C@@H]3C[C@H](C)C4=CC(=O)C=C[C@]4(C)[C@H]3[C@@H](O)C[C@@]21C` gave A549 tox-1 inactive, Mito fusion yeast inactive, miR-21 reporter inactive, Nrf2 block 0.052µM, Nrf2 ARE act inactive, FLuc counter 3 inactive, A549 tox-2 inactive and Nrf2 ARE inh 0.052µM.
For CC(=O)c1ccc(N2C(=O)N(Cc3ccc(F)cc3)c3ccccc3S2(=O)=O)cc1 the results were A549 tox-1 inactive, miR-21 reporter inactive and Nrf2 ARE act inactive.
Cc1cccc(C(=O)Nc2cccc(OCc3cc(=O)n4ccccc4n3)c2)c1 was read as A549 tox-1 inactive, miR-21 reporter inactive and Nrf2 ARE act inactive.
Screening CCC(C)n1c(=N)c(C(=O)NC2CCCCC2)cc2c(=O)n3cc(C)ccc3nc21 (stereo unspecified) returned A549 tox-1 inactive, miR-21 reporter inactive, Nrf2 block inactive and Nrf2 ARE act inactive.
For CC[C@H](C)[C@@H](C(=O)NCCCCCCCCCCC(=O)N1CCN(C(=O)OC(C)(C)C)CC1)n1cc(CCCCN=C(NC(=O)OC(C)(C)C)NC(=O)OC(C)(C)C)nn1 the results were Mito fusion yeast inactive.
For CC[C@H](C)[C@@H](C(=O)NCCCCCCCCCCC(=O)N1CCN(C(=O)OC(C)(C)C)CC1)n1cc(CCCCCNC(=O)OC(C)(C)C)nn1 the results were A549 tox-1 inactive, Mito fusion yeast inactive, Nrf2 block 5.8µM, Nrf2 ARE act inactive, FLuc counter 3 inactive, A549 tox-2 inactive and Nrf2 ARE inh 7.3µM.
Screening CC(C)c1ccc(OC(=O)c2cc(-c3ccccc3)on2)cc1 returned A549 tox-1 inactive, miR-21 reporter inactive, Nrf2 block inactive and Nrf2 ARE act inactive.
`COc1ccc(OCc2nc3ccccc3[nH]2)cc1` gave A549 tox-1 inactive, Mito fusion yeast inactive, miR-21 reporter inactive, Nrf2 block inconclusive and Nrf2 ARE act inactive.
`COc1ccc(OC(C)c2nc3ccccc3[nH]2)cc1` (stereo unspecified) gave A549 tox-1 inactive, miR-21 reporter inactive, Nrf2 block 9.2µM, Nrf2 ARE act inactive, FLuc counter 3 inactive, A549 tox-2 inactive and Nrf2 ARE inh inactive.
COc1ccc(CC(=O)Nc2nnc(C(C)(C)C)s2)cc1OC was read as A549 tox-1 inactive, Mito fusion yeast inactive, miR-21 reporter inactive, Nrf2 block 9.2µM, Nrf2 ARE act inactive, FLuc counter 3 inactive, A549 tox-2 inactive and Nrf2 ARE inh inactive.
For COc1ccc(-c2csc(NC(=O)Cc3ccccc3)n2)cc1OC the results were A549 tox-1 inactive, Mito fusion yeast inactive, miR-21 reporter inactive, Nrf2 block 2.6µM, Nrf2 ARE act inactive, FLuc counter 3 inactive and A549 tox-2 inactive.
Screening O=C(Cc1ccccc1)Nc1nc(-c2ccc(F)c(F)c2)cs1 returned A549 tox-1 inactive, Mito fusion yeast inactive, miR-21 reporter inactive, Nrf2 block inactive and Nrf2 ARE act inactive.
CCc1nnc(NC(=O)Cc2ccc(OC)c(OC)c2)s1 was read as A549 tox-1 inactive, Mito fusion yeast inactive, miR-21 reporter inactive, Nrf2 block inactive and Nrf2 ARE act inactive.
For CCc1ccccc1OCC(=O)Nc1nc(-c2cccnc2)cs1 the results were A549 tox-1 inconclusive, Mito fusion yeast inactive, miR-21 reporter inactive, Nrf2 block 7.3µM, Nrf2 ARE act inactive, FLuc counter 3 inactive, A549 tox-2 inconclusive and Nrf2 ARE inh inconclusive.
